Target: Nociceptin receptor (Homo sapiens, UniProt P41146)
Settings: hek293

By UniProt entry, the sequences of proteins in these tests, tags left out. Where a name states a change or a piece, a line headed by the entry shows the natural chain unless it says otherwise.
UniProt P41146: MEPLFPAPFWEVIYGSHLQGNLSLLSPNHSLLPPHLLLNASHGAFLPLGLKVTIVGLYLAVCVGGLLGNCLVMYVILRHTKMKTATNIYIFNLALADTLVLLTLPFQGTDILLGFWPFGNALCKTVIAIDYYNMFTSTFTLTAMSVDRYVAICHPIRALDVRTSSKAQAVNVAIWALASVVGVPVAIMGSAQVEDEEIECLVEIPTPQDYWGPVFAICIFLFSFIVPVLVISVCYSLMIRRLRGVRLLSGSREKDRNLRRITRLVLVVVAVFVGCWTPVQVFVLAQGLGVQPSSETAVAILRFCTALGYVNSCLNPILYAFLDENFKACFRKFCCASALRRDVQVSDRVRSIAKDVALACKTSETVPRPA

CC(C)[C@H]1CC[C@@H](N2CCC3(CC2)C(=O)N(CCCCCCCCCN2CN(c4ccccc4)C4(CCN([C@H]5CC[C@@H](C(C)C)CC5)CC4)C2=O)CN3c2ccccc2)CC1 gave an IC50 of 25.2 nM.

Source: ChEMBL document CHEMBL1759965, “Synthesis and pharmacological evaluation of bivalent antagonists of the nociceptin opioid receptor” (Eur J Med Chem, 2011)
